assay: Restoration of e-cadherin expression in human SW620 cells at 10 uM by in-cell-western assay relative to control; assay type: functional, cell-based; conditions: SW-620
Summary of the method: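 In-Cell-Western immunofluorescence read-out of e-cadherin in SW620 colon carcinoma cells after treatment at 10 μM; value is average fold change from two assessments.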

**Q.** For `[N-]=[N+]=Nc1ccnc(NCCCNC(=O)c2cc(-c3ccccc3)on2)n1`, which fold change (FC) is on record?
**A.** 15.9

**Q.** For `CC(=O)n1cc(CNCCCNC(=O)c2cc(-c3ccccc3)on2)c2ccccc21`, which fold change (FC) is on record?
**A.** 6.09

**Q.** With `Cc1ccc(C(=O)NCCCCNC(=O)c2cc(-c3ccccc3)on2)c(O)n1` as the compound, how does the fold change (FC) read?
**A.** 4.58

**Q.** With `O=C(NCCCCNC(=O)c1cc(-c2cccs2)on1)c1cccnc1` as the compound, how does the fold change (FC) read?
**A.** 4.55

**Q.** Which fold change (FC) does the source give for `O=C(NCCCCNC(=O)c1ccc(Cl)o1)c1cc(-c2ccccc2)on1` here?
**A.** 4.43

**Q.** With `O=C(Cc1c[nH]c2ccccc12)NCCCCNC(=O)c1cc(-c2ccccc2)on1` as the compound, how does the fold change (FC) read?
**A.** 4.2

**Q.** For `O=C(NCCCNC(=O)c1nccs1)c1cc(-c2ccccc2)on1`, which fold change (FC) is on record?
**A.** 8.98

**Q.** For `O=C(NCCCNC(=O)c1cc(-c2ccccc2)on1)c1ccncc1`, which fold change (FC) is on record?
**A.** 2.79

**Q.** With `O=C(NCCCCc1ccncc1)c1cc(-c2ccco2)on1` as the compound, how does the fold change (FC) read?
**A.** 4.36

**Q.** Which fold change (FC) does the source give for `O=C(Cc1ccccc1O)NCCCNC(=O)c1cc(-c2ccccc2)on1` here?
**A.** 3.4

**Q.** With `N#Cc1ccnc(NCCCNC(=O)c2cc(-c3ccccc3)on2)c1` as the compound, how does the fold change (FC) read?
**A.** 5.77

**Q.** With `Nc1cncc(C(=O)NCCCCNC(=O)c2cc(-c3cccs3)on2)n1` as the compound, how does the fold change (FC) read?
**A.** 4.26

**Q.** Which fold change (FC) does the source give for `O=C(NCCCCNC(=O)c1cc(-c2ccccc2)on1)c1cccnc1` here?
**A.** 4.43

assay: Restoration of e-cadherin expression in human SW620 cells by in-cell-western assay; assay type: functional, cell-based; conditions: SW-620

**Q.** For `O=C(NCCCCNC(=O)c1cccnc1O)c1cc(-c2ccccc2)on1`, which EC50 is on record?
**A.** 3.1 µM

Source: ChEMBL document CHEMBL3616409, “Optimization of a small molecule probe that restores e-cadherin expression” (Bioorg Med Chem Lett, 2015)
